Target: C-X-C chemokine receptor type 4 (Homo sapiens, UniProt P61073)
Assay: Antagonist activity at CXCR4 receptor in human CCRF-CEM cells assessed as inhibition of SDF-1alpha-induced calcium release preincubated for 25 mins followed by SDF-1alpha addition and monitered for 90 sec
Format: functional, cell-based

By UniProt entry, the sequences of proteins in these tests, tags left out.
UniProt P61073, whole entry: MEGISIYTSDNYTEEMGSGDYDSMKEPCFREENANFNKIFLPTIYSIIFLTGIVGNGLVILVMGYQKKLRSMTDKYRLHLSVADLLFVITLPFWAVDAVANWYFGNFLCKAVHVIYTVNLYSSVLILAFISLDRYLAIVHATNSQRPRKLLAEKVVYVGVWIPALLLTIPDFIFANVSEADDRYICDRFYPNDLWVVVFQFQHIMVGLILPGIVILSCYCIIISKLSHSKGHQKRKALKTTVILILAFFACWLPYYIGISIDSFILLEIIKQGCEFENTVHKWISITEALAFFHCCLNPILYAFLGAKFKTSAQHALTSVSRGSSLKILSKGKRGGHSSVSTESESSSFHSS

IC50: 5.18 nM
Structure (SMILES): NCCCCN(Cc1nc2ccccc2[nH]1)[C@H]1CCCc2cccnc21 [MAVORIXAFOR]

From ChEMBL document CHEMBL4842390, “Amino-Heterocycle Tetrahydroisoquinoline CXCR4 Antagonists with Improved ADME Profiles via Late-Stage Buchwald Couplings” (ACS Med Chem Lett, 2021)
